Data published in article PMC7442650, “A machine learning-based chemoproteomic approach to identify drug targets and binding sites in complex proteomes” (Nature Communications, 2020).
Where two headings read alike, the source gives them in different places.

The chains behind the UniProt entries cited, without tags or fusion partners.
UniProt P62942, whole entry: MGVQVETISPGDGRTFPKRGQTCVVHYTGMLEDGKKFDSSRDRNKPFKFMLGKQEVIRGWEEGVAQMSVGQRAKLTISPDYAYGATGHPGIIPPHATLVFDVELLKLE

Target: FKBP1A (Homo sapiens, UniProt P62942)
[1] = FKBP1A peptide LVFDVELLK, Decreasing
[2] = FKBP1A peptide VFDVELLK, Decreasing
[3] = FKBP1A peptide YTGMLEDGK, Decreasing

CO[C@H]1C[C@@H]2CC[C@@H](C)[C@@](O)(O2)C(=O)C(=O)N2CCCC[C@H]2C(=O)O[C@H]([C@H](C)C[C@@H]2CC[C@@H](O)[C@H](OC)C2)CC(=O)[C@H](C)/C=C(\C)[C@@H](O)[C@@H](OC)C(=O)[C@H](C)C[C@H](C)/C=C/C=C/C=C/1C [Rapamycin]
LiP Rank [1]: 8 | Score [1]: 3.01 | LiP Rank [2]: 13 | Score [2]: 2.35 | LiP Rank [3]: 7 | Score [3]: 3.07 | LiP Rank (FKBP1A peptide […], Decreasing): 5 | Score (FKBP1A peptide […], Decreasing): 3.1 | Score (FKBP1A peptide […], Increasing): 4.49 | Score (FKBP1A peptide […], Increasing, Supplementary Data 4): 4.910 | DRC (peptide […], FKBP1A): 0.982 | Target (peptide […], FKBP1A): Yes | LiP Score (peptide […], FKBP1A, Supplementary Data 3): 4.910
